Literature values as cited in article PMC4144739 (The Journal of Experimental Medicine, 2014).

Settings: ref Arnason, 1999; cited from earlier work

B1: IFN-β: effective therapeutic for active EAE and multiple sclerosis (protein, UniProt P01574 22-187, looked up)
Interferon beta: MSYNLLGFLQRSSNFQCQKLLWQLNGRLEYCLKDRMNFDIPEEIKQLQQFQKEDAALTIYEMLQNIFAIFRQDSSSTGWNETIVENLLANVYHQINHLKTVLEEKLEKEDFTRGKLMSSLHLKRYYGRILHYLKAKEYSHCAWTIVRVEILRNFYFINRLTGYLRN
- therapeutic effect in active EAE and multiple sclerosis: effective therapeutic for active EAE and multiple sclerosis
